From US20130171073A1 (CEDARS-SINAI MEDICAL CENTER, priority 2010, published 2013)

System: AtT20 corticotroph tumor xenografts
Test: Plasma ACTH and serum corticosterone in AtT20 xenograft-bearing nude mice
Conditions: 150 mg/kg oral gavage twice daily, three weeks, n=13-14

Q: With `CC[C@H](CO)Nc1nc(NCc2ccccc2)c2ncn(C(C)C)c2n1` [R-roscovitine] as the compound, how does the “serum corticosterone levels (mean±S.E.)” value (vehicle 1046±109 ng/ml) read?
A: The value was 561 ± 72 ng/mL.

Q: And the “plasma ACTH levels (mean±S.E.)” value (vehicle 1256±596 pg/ml)?
A: Its value is 596 ± 103 pg/mL.
